The entries are a selection whose mix differs from that of the whole data set. Active and inactive are the calls of the source.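 The calls were made as follows: active = reconfirmed compounds whose average cytotoxicity reaches 50% or more; inactive = the rest.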
Assay: PPC-1 cell viability loss – ATP content luminescence, cytotoxicity control for TRAIL apoptosis potentiator project, confirmation (AID 1447);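 also: 0% = DMSO-treated cells and 100% = wells holding medium but no cells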
Conditions: PPC-1 viability, ATPlite luminescence, overnight; at 5 µM; active compounds read high

Compound | cytotoxicity
C[N+]1=C2C=CC=CC=C2SC12C([N+](=O)[O-])=CC([N+](=O)[O-])=C[C-]2[N+](=O)[O-] (stereo unspecified) | inactive: 4.6%

Reference: PubChem BioAssay AID1447 (Sanford-Burnham Center for Chemical Genomics, 2008)
